# Test results from patent publication US10111875B2, “Pyrrolopyrimidine compounds and uses thereof” (HUTCHISON MEDIPHARMA LIMITED, priority 2010, dated 2018).
# By UniProt entry, the sequences of proteins in these tests, tags left out. Residues count along the entry.
# UniProt P23458, 875-1153: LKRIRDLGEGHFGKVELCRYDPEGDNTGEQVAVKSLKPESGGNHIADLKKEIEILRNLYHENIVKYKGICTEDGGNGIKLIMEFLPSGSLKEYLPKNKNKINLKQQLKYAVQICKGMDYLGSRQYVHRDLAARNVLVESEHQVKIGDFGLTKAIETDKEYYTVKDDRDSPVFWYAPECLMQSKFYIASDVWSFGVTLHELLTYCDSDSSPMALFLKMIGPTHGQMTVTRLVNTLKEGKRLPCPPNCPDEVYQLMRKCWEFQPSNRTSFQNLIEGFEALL
# Biological target: Recombinant human JAK1 catalytic domain (Homo sapiens (Human), UniProt P23458)
# Assay: JAK1 kinase assay (Z'-LYTE Tyr 6 Peptide)
# Format: biochemical
# Conditions: read-out: inhibition percentage (IR %)
# Method: JAK1/2/3 kinase assay are performed in vitro using Kit-Tyr 6 Peptide (Invitrogen, Cat. No. PV4122). TYK2 kinase assay are performed in vitro using Z′-LYTE™ Kinase Assay Kit-Tyr 3 Peptide (Invitrogen, Cat. No. PV3192). […] All compounds are initially tested at 8 different concentrations (1 μM down to 0.0003 μM) using a 1:3 serial dilution scheme.
smiles,measurement,value
CN(c1nc(C#N)cs1)[C@@H]1CCN(c2ncnc3[nH]ccc23)C1 [Compound 93],inhibition at 0.3 µM,50 to 100%
